This note sets out measurements from US12145923B2, “Tetrahydroisoquinoline compound, preparation method therefor, pharmaceutical composition containing same, and use thereof” (SHANGHAI INSTITUTE OF MATERIA MEDICA, CHINESE ACADEMY OF …, priority 2018, dated 2024).

This data set concerns RAW 264.7 cells. Put plainly: Cytotoxicity on RAW 264.7 cells (CCK-8 method). The data set is classed as cell-based, mouse. (In general: Tetrazolium assays rely on reduction of a dye to a coloured formazan, in cell work by metabolically active cells.)

With `COc1cc2c(cc1OC)[C@@H](Cc1c[nH]c3ccccc13)N(C=O)CC2` [(R)-C9, (R)-1-((1H-indol-3-yl)methyl)-6,7-dimethoxy-3,4-dihydroisoquinoline-2(1H)-formaldehyde], the Cell survival rate/% is, setting by setting: (RAW 264.7, 0.5 μM) 112.8%; (RAW 264.7, 5 μM) 98.4%; (RAW 264.7, 50 μM) 83.9%.
In the case of `COc1cc2c(cc1OC)[C@H](Cc1c[nH]c3ccccc13)N(C=O)CC2` [(S)-C9, (S)-1-((1H-indol-3-yl)methyl)-6,7-dimethoxy-3,4-dihydroisoquinoline-2(1H)-formaldehyde], the Cell survival rate/% (RAW 264.7, 0.5 μM) was found to be 80.9%; the Cell survival rate/% (RAW 264.7, 5 μM) is on record as 77.8%; the Cell survival rate/% (RAW 264.7, 50 μM) is 77.9%.
`COc1cc2c(cc1OC)C(Cc1c[nH]c3ccccc13)N(C=O)CC2` (stereo not drawn) [Compound C9, 1-((1H-indol-3-yl)methyl)-6,7-dimethoxy-3,4-dihydroisoquinoline-2(1H)-formaldehyde]: the Cell survival rate/% reads like this: (RAW 264.7, 0.5 μM) 92.5%; (RAW 264.7, 5 μM) 88.4%; (RAW 264.7, 50 μM) 112.6%.
